Experimental data taken from US8772480B2, “Inhibitors of PI3 kinase and/or mTOR” (priority 2009, dated 2014).

Target: mammalian target of rapamycin (mTOR) (Homo sapiens (Human), UniProt P42345)
Conditions: read-out: mTOR IC50

## COc1ncc(Nc2ncc(C(C)N3CCN(C(=O)N(C)C)CC3)cc2-c2nc(C)nc(N)n2)cc1F (stereo not drawn) [Example 294, 4-(1-(5-(4-Amino-6-Methyl-1,3,5-Triazin-2-yl)-6-(5-Fluoro-6-Methoxypyridin-3-Ylamino)Pyridin-3-yl)Ethyl)-N,N-Dimethylpiperazine-1-Carboxamide]
  IC50: > 10 µM

## COc1ncc(Nc2ncc([C@@H](C)N3CCN(S(C)(=O)=O)C[C@@H]3C)cc2-c2nc(C)nc3[nH]cnc23)cc1F [Example 295, N-(5-Fluoro-6-Methoxypyridin-3-yl)-5-((R)-1-((S)-2-Methyl-4-(Methylsulfonyl)Piperazin-1-yl)Ethyl)-3-(2-Methyl-9H-Purin-6-yl)Pyridin-2-Amine]
  IC50: > 10 µM

## COc1ncc(Nc2ncc([C@H](C)N3CCN(S(C)(=O)=O)C[C@@H]3C)cc2-c2nc(C)nc3[nH]cnc23)cc1F [Example 296, N-(5-Fluoro-6-Methoxypyridin-3-yl)-5-((S)-1-((S)-2-Methyl-4-(Methylsulfonyl)Piperazin-1-yl)Ethyl)-3-(2-Methyl-9H-Purin-6-yl)Pyridin-2-Amine]
  IC50: > 10 µM

## COc1ncc(Nc2ncc([C@@H](C)N3CCN(S(C)(=O)=O)CC3)cc2-c2nc(C)nc3[nH]cnc23)cc1F [Example 297, (R)—N-(5-Fluoro-6-Methoxypyridin-3-yl)-3-(2-Methyl-9H-Purin-6-yl)-5-(1-(4-(Methylsulfonyl)Piperazin-1-yl)Ethyl)Pyridin-2-Amine]
  IC50: > 10 µM

## COc1ncc(Nc2ncc(C3(O)CC3)cc2-c2nc(C)nc(N)n2)cc1F [Example 298, 1-(5-(4-Amino-6-Methyl-1,3,5-Triazin-2-yl)-6-(5-Fluoro-6-Methoxypyridin-3-Ylamino)Pyridin-3-yl)Cyclopropanol]
  IC50: 0.242 µM

## COc1ncc(Nc2ncc(C(C)NC(C)C)cc2-c2nc(C)nc(N)n2)cc1F (stereo not drawn) [Example 299, 4-(2-(5-Fluoro-6-Methoxypyridin-3-Ylamino)-5-(1-(Isopropylamino)Ethyl)Pyridin-3-yl)-6-Methyl-1,3,5-Triazin-2-Amine]
  IC50: > 10 µM

## COc1ncc(Nc2ncc(C3(N)CC3)cc2-c2nc(C)nc(N)n2)cc1F [Example 300, 4-(5-(1-Aminocyclopropyl)-2-(5-Fluoro-6-Methoxypyridin-3-Ylamino)Pyridin-3-yl)-6-Methyl-1,3,5-Triazin-2-Amine]
  IC50: > 10 µM

## CCC(N)(CC)c1cnc(Nc2cnc(OC)c(F)c2)c(-c2nc(C)nc(N)n2)c1 [Example 301, 4-(5-(3-Aminopentan-3-yl)-2-(5-Fluoro-6-Methoxypyridin-3-Ylamino)Pyridin-3-yl)-6-Methyl-1,3,5-Triazin-2-Amine]
  IC50: 4.88 µM

## COc1ncc(Nc2ncc([C@@H](C)N3CCN(S(C)(=O)=O)CC3)cc2-c2nc(C)nc(N)n2)cc1C(C)C [Example 302, (R)-4-(2-(5-Isopropyl-6-Methoxypyridin-3-Ylamino)-5-(1-(4-(Methylsulfonyl)Piperazin-1-yl)Ethyl)Pyridin-3-yl)-6-Methyl-1,3,5-Triazin-2-Amine]
  IC50: > 10 µM

## CCS(=O)(=O)c1cnc(Nc2cnc(OC)c(F)c2)c(-c2nc(C)nc(N)n2)c1 [Example 303, 4-(5-(ethylsulfonyl)-2-(5-fluoro-6-methoxypyridin-3-ylamino)pyridin-3-yl)-6-methyl-1,3,5-triazin-2-amine]
  IC50: > 10 µM

## Cc1nc(N)cc(-c2cccnc2Nc2cnc(Cl)c(NS(C)(=O)=O)c2)n1 [Example 304, N-(5-((3-(6-amino-2-methyl-4-pyrimidinyl)-2-pyridinyl)amino)-2-chloro-3-pyridinyl)methanesulfonamide]
  IC50: 0.444 µM

## COc1ncc(Nc2ncc([C@@H](C)N3CCN(S(C)(=O)=O)CC3)cc2-c2cc(N)nc(C)n2)cc1F [Example 305, 6-(2-((5-fluoro-6-methoxy-3-pyridinyl)amino)-5-((1R)-1-(4-(methylsulfonyl)-1-piperazinyl)ethyl)-3-pyridinyl)-2-methyl-4-pyrimidinamine]
  IC50: > 10 µM
